Experimental data reported in ChEMBL document CHEMBL6120980, “Discovery of First Branched-Chain Ketoacid Dehydrogenase Kinase (BDK) Inhibitor Clinical Candidate PF-07328948” (J Med Chem, 2025).
The source made the active and inactive calls. The calls are words filed in the database; no cut-off is given here.

Amino acid sequences for entries named in this document (tags omitted).
UniProt P10632, whole entry: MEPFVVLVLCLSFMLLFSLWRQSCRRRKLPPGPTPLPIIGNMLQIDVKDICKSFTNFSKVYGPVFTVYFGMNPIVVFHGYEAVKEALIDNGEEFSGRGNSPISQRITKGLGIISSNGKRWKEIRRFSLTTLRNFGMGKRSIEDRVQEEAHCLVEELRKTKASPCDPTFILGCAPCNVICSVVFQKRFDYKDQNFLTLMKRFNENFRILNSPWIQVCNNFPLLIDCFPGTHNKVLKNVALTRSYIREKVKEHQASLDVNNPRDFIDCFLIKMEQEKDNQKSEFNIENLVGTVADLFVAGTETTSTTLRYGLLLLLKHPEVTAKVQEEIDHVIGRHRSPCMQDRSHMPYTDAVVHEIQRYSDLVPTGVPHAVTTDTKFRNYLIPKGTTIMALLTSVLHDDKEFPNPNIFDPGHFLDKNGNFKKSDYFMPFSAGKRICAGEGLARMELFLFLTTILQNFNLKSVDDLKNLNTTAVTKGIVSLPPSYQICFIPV

Tests used:
Cytochrome P450 2C8 [1] = target: T1, Cytochrome P450 2C8 (Homo sapiens, UniProt P10632); assay: Time-dependent inhibition of human CYP2C8-mediated amodiaquine N-dealkylation in human liver microsomes using amodiaquine as substrate assessed as second order rate constant measured after 1 to 40 min in presence of NADPH; assay type: ADME, Microsome; conditions: time 1-40 min
Cytochrome P450 2C8 [2] = target: T1, Cytochrome P450 2C8; assay: Inhibition of human CYP2C8-mediated amodiaquine N-dealkylation in human liver microsomes using amodiaquine as substrate assessed as second order rate constant at 3 to 100 uM in presence of NADPH; assay type: ADME, Microsome; conditions: dose 3-100 µM
[3] = target: Branched-chain alpha-ketoacid dehydrogenase kinase (Mus musculus) (UniProt O55028); conditions: C57BL/6J, dose 10-30 mg/kg, route po, time 10.0 day
[4] = target: Branched-chain alpha-ketoacid dehydrogenase kinase (Mus musculus) (UniProt O55028); conditions: C57BL/6J, dose 10-30 mg/kg, route po, time 10.0 day; remark: listed apart in the source
[5] = target: Branched-chain alpha-ketoacid dehydrogenase kinase (Mus musculus) (UniProt O55028); conditions: C57BL/6J, dose 10-30 mg/kg, route po, time 10.0 day; remark: listed apart in the source
[6] = target: Branched-chain alpha-ketoacid dehydrogenase kinase (Mus musculus) (UniProt O55028); conditions: C57BL/6J, dose 10-30 mg/kg, route po, time 10.0 day; remark: listed apart in the source
[7] = target: Branched-chain alpha-ketoacid dehydrogenase kinase (Mus musculus) (UniProt O55028); conditions: C57BL/6J, dose 10-30 mg/kg, route po, time 10.0 day; remark: listed apart in the source
[8] = target: Branched-chain alpha-ketoacid dehydrogenase kinase (Mus musculus) (UniProt O55028); conditions: C57BL6/J, dose 30-90 mg/kg, route po, time 50.0 day
[9] = target: Branched-chain alpha-ketoacid dehydrogenase kinase (Mus musculus) (UniProt O55028); conditions: C57BL6/J, dose 30-90 mg/kg, route po, time 8.0 weeks
[10] = target: Branched-chain alpha-ketoacid dehydrogenase kinase (Mus musculus) (UniProt O55028); conditions: C57BL6/J, dose 30-90 mg/kg, route po, time 8.0 weeks; remark: listed apart in the source
[11] = target: Branched-chain alpha-ketoacid dehydrogenase kinase (Mus musculus) (UniProt O55028); conditions: C57BL6/J, dose 30-90 mg/kg, route po, time 8.0 weeks; remark: listed apart in the source
[12] = target: Branched-chain alpha-ketoacid dehydrogenase kinase (Mus musculus) (UniProt O55028); conditions: C57BL6/J, dose 30-90 mg/kg, route po, time 8.0 weeks; remark: listed apart in the source
[13] = target: Branched-chain alpha-ketoacid dehydrogenase kinase (Mus musculus) (UniProt O55028); conditions: C57BL6/J, dose 30-90 mg/kg, route po, time 8.0 weeks; remark: listed apart in the source

K (Cytochrome P450 2C8 [1]): 7.22 M⁻¹ s⁻¹ | K (Cytochrome P450 2C8 [2]): 0.433 µmol/min | inhibition [3]: Dose-dependent-effect | inhibition [4]: Dose-dependent-effect | inhibition [5]: Dose-dependent-effect | inhibition [6]: Dose-dependent-effect | inhibition [7]: Dose-dependent-effect | inhibition [9]: Active | inhibition [10]: Active | inhibition [11]: Dose-dependent-effect | inhibition [12]: Dose-dependent-effect | inhibition [13]: Dose-dependent-effect
Structure (SMILES): COc1c(F)c(F)cc(-c2c(C(=O)O)sc3cc(F)ccc23)c1F
inhibition [8]: Active; Qualitatively Larger Effect Observed Compare To Day #
